Assay results published in ChEMBL document CHEMBL3822384, “2-(3-Methoxyphenyl)quinazoline Derivatives: A New Class of Direct Constitutive Androstane Receptor (CAR) Agonists” (J Med Chem, 2016).

Amino acid sequences for entries named in this document (tags omitted).
UniProt P11712, whole entry: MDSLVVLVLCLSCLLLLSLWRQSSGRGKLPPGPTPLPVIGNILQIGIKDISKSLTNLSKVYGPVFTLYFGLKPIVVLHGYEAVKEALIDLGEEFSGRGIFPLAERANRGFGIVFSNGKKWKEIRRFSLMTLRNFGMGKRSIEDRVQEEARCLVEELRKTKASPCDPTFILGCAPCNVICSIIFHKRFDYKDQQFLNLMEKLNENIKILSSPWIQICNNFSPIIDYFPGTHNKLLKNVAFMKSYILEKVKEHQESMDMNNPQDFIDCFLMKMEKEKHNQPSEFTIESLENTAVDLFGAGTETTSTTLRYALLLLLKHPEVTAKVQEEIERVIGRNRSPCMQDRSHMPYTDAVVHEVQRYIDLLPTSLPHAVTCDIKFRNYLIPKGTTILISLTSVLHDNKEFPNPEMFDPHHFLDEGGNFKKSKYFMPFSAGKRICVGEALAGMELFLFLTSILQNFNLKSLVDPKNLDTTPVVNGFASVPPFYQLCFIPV

Biological target: Cytochrome P450 2C9 (Homo sapiens, UniProt P11712)
Test: Inhibition of recombinant human CYP2C9 by P450-Glo luminescence assay
Assay type: ADME

Which IC50 does the source give for `OC(Cn1cncn1)(Cn1cncn1)c1ccc(F)cc1F` [FLUCONAZOLE] here?
The IC50 was 9.21 µM.
